Molecular target: human programmed cell death protein 1 on PD-1 hi transgenic Jurkat cells (human, UniProt Q15116 25-288)
Experiment: FACS

By UniProt entry, the sequences of proteins in these tests, tags left out. Residues count along the entry.
UniProt Q15116, 25-288: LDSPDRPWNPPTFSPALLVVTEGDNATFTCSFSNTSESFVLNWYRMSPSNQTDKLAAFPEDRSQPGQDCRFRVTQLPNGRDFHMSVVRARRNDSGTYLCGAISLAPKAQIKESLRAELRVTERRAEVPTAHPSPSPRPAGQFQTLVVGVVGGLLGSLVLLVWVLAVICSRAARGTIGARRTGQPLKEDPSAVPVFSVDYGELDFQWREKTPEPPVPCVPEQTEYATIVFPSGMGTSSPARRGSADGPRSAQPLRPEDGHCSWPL

B1: anti-PD-1 monoclonal antibody clone 135c139d6, IgG1 (antibody, V domains shown)
VH: EVQLVQSGAEVKKPGESLKISCKGSGYSFTNFYIHWVRQAPGQRLEWMGSIYPNYGDTAYNQKFKDRFVFSLDTSVSTAYLQISSLKAEDTAVYYCARGYSYAMDYWGQGTTVTVSS
VL: DIQMTQSPSSVSASVGDRVTITCSASQGISGDLNWYQQKPGKAPKLLIYHTSSLHSGVPSRFSGSGSGTDFTLTISSLQPEDFATYYCQYYSKDLLTFGGGTKLEIK
modifications: biotin (only in the competitive assay)
B1 showed an EC50 of 12.3 nM.

From paper PMC13108567 (2026)
